Experimental data taken from patent US8975249B2, “Heterocyclic compounds and uses thereof” (Celgene Avilomics Research, Inc., priority 2010, dated 2015).
Read-outs that look alike come from different tables or passages of the source.

Biological target: EGFR T790M/L858R (Homo sapiens (Human), UniProt P00533, L858R/T790M)
Test: Omnia biochemical assay, EGFR-T790M/L858R active enzyme
Conditions: for IC50: [ATP]=20 uM, 30 min pre-incubation

Compound: C=CC(=O)Nc1cccc(Nc2nc(Nc3ccc(N4CCN(S(C)(=O)=O)CC4)cc3OC)ncc2Cl)c1 [Compound I-41, N-(3-(5-chloro-2-(2-methoxy-4-(4-(methylsulfonyl)piperazin-1-yl)phenylamino)pyrimidin-4-ylamino)phenyl)acrylamide]
- IC50 ([EGFR-T790M/L858R]=2.5 nM): 1 to 10 nM

Compound: C=CC(=O)Nc1cccc(Oc2nc(Nc3ccc(N4CCN(C(=O)CC(C)(C)C)CC4)cc3OC)ncc2Cl)c1 [Compound I-23, N-(3-(5-chloro-2-(4-(4-(3,3-dimethylbutanoyl)piperazin-1-yl)-2-methoxyphenylamino)pyrimidin-4-yloxy)phenyl)acrylamide]
- IC50 ([EGFR-T790M/L858R]=2.5 nM): 1 to 10 nM

Compound: N-(3-(5-chloro-2-(2-methoxy-4-morpholinophenylamino)pyrimidin-4-ylamino)phenyl)acrylamide [Compound I-15]
- IC50 ([EGFR-T790M/L858R]=[…]): 1 to 10 nM
- Ratio WT/mutant (biochemical IC50 WT EGFR / EGFR (T790M/L858R)): >15

Compound: C=CC(=O)Nc1cccc(Nc2nc(Nc3ccc(N4CCOCC4)cc3OC(F)F)ncc2C(F)(F)F)c1 [Compound I-14, N-(3-(2-(2-(difluoromethoxy)-4-morpholinophenylamino)-5-(trifluoromethyl)pyrimidin-4-ylamino)phenyl)acrylamide]
- IC50 ([EGFR-T790M/L858R]=2.5 nM): < 1 nM

Compound: C=CC(=O)Nc1cccc(Oc2nc(Nc3ccc(N4CCN(C(C)=O)CC4)cc3OC)ncc2C(F)(F)F)c1 [Compound I-10, N-(3-(2-(4-(4-acetylpiperazin-1-yl)-2-methoxyphenylamino)-5-(trifluoromethyl)pyrimidin-4-yloxy)phenyl)acrylamide]
- IC50 ([EGFR-T790M/L858R]=2.5 nM): 1 to 10 nM

Compound: C=CC(=O)Nc1cccc(Oc2nc(Nc3ccc(N4CCOCC4)cc3OC(F)F)ncc2C(F)(F)F)c1 [Compound I-13, N-(3-(2-(2-(difluoromethoxy)-4-morpholinophenylamino)-5-(trifluoromethyl)pyrimidin-4-yloxy)phenyl)acrylamide]
- IC50 ([EGFR-T790M/L858R]=2.5 nM): < 1 nM

Compound: C=CC(=O)Nc1cccc(Oc2nc(Nc3ccc(N4CCOCC4)cc3OC(F)F)ncc2Cl)c1 [Compound I-36, N-(3-(5-chloro-2-(2-(difluoromethoxy)-4-morpholinophenylamino)pyrimidin-4-yloxy)phenyl)acrylamide]
- IC50 ([EGFR-T790M/L858R]=2.5 nM): < 1 nM

Compound: C=CC(=O)Nc1cccc(Oc2nc(Nc3ccc(N4CCN(C(C)=O)CC4)cc3OC)ncc2Cl)c1 [Compound I-9, N-(3-(2-(4-(4-acetylpiperazin-1-yl)-2-methoxyphenylamino)-5-chloropyrimidin-4-yloxy)phenyl)acrylamide]
- IC50 ([EGFR-T790M/L858R]=2.5 nM): < 1 nM

Compound: C=CC(=O)Nc1cccc(Nc2nc(Nc3ccc(N4CCN(C(=O)NC)CC4)cc3OC)ncc2C(F)(F)F)c1 [Compound I-28, 4-(4-(4-(3-acrylamidophenylamino)-5-(trifluoromethyl)pyrimidin-2-ylamino)-3-methoxyphenyl)-N-methylpiperazine-1-carboxamide]
- IC50 ([EGFR-T790M/L858R]=2.5 nM): < 1 nM

Compound: C=CC(=O)Nc1cccc(Oc2nc(Nc3ccc(N4CCN(C(=O)OC)CC4)cc3OC)ncc2C(F)(F)F)c1 [Compound I-20, methyl 4-(4-(4-(3-acrylamidophenoxy)-5-(trifluoromethyl)pyrimidin-2-ylamino)-3-methoxyphenyl)piperazine-1-carboxylate]
- Ratio WT/mutant: >5
- IC50 ([EGFR-T790M/L858R]=2.5 nM): 1 to 10 nM

Compound: C=CC(=O)Nc1cccc(Oc2nc(Nc3ccc(N4CCN(S(C)(=O)=O)CC4)cc3OC)ncc2Cl)c1 [Compound I-26, N-(3-(5-chloro-2-(2-methoxy-4-(4-(methylsulfonyl)piperazin-1-yl)phenylamino)pyrimidin-4-yloxy)phenyl)acrylamide]
- IC50 ([EGFR-T790M/L858R]=2.5 nM): < 1 nM

Compound: C=CC(=O)Nc1cccc(Nc2nc(Nc3ccc(N4CCN(C(=O)CO)CC4)cc3OC)ncc2C(F)(F)F)c1 [Compound I-6, N-(3-(2-(4-(4-(2-hydroxyacetyl)piperazin-1-yl)-2-methoxyphenylamino)-5-(trifluoromethyl)pyrimidin-4-ylamino)phenyl)acrylamide]
- IC50 ([EGFR-T790M/L858R]=2.5 nM): < 1 nM
